In patent publication US12559750B2, “Methods and compositions for treatment of polycystic kidney disease” (Regulus Therapeutics Inc., priority 2021, dated 2026) one finds metabolism data, which are given here for one sequence.

The data set can be described thus: Metabolism of RG-NG-1015 in vitro and in vivo (HPLC-TOF). Conditions: kidney and liver lysates, serum (mouse, monkey, human); CD-1 mice and monkeys in vivo; in words.

ASGSCMAFCFUFUMUSAS [RG-NG-1015]: the metabolism entry was “undergoes sequential hydrolysis from both 3′ and 5′ ends to produce chain-shortened metabolites”.
